# From PubChem
# Compounds with a hit are over-represented: about 1.5% of the library has one in this group of screens.
# RAD54 inh: inhibitors of human RAD54 branch migration; Q92698; RAD54 Holliday junction branch migration, FAM/BHQ fluorescence; inhibition, % at 10.4 µM; 360,000 compounds, 0.14% hits;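 active = mean normalized replicate activity at least 40 and at least half of replicates scoring 40 or more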;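 also: 0% = median of neutral control wells and 100% = median of positive control wells; inhibitors cause a drop in the FAM fluorescence signal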
# Yeast UUG start: modulators of start codon recognition fidelity in yeast; S. cerevisiae UUG-firefly luciferase reporter, luminescence/redox ratio; AID 602363; 350,000 tested, 0.13% active; activity score, % at 18.7 µM;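 active = replicate mean at a twofold rise or more, about +100% in these data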;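 also: firefly luciferase made from a UUG start codon reports start codon fidelity; reporter light over untreated wells divided by growth signal over untreated wells; some hits fall short of that in this replicate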
# PglD inh: inhibitors of Campylobacter jejuni PglD acetyltransferase; inhibition, % at 12.5 µM; 360,000 compounds, 0.098% hits; purified PglD enzyme, DTNB colorimetric CoA detection; in the data active = inhibition above about 16%, passing the limit was not always enough
# Casp6 inh: blocks human caspase-6 cleavage activity; purified caspase-6, Z-VEID-R110 cleavage fluorescence; 350,000 compounds, 0.53% hits; inhibition, % at 12.5 µM; P55212;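 active = mean inhibition across replicates at least about 35%, with every replicate also reaching that limit, limit read from the data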;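 also: 0% = median of neutral control wells and 100% = no fluorescence left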
# INS-1E GSIS act: GLuc luminescence reporter in INS-1E cells, primary screen for activators of glucose-dependent secretion of insulin; AID 743287; 370,000 compounds, 0.61% hits; activation, % at 16.6 µM; INS-1E GLuc reporter insulin secretion, 2-3 h;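 active = lowest replicate activation of at least 40%, so every replicate reaches that level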;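 also: 0% = median of neutral control wells and 100% = median of IBMX positive control wells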
# RAD52 anneal inh: blocks human RAD52 DNA annealing; 360,000 compounds, 0.46% hits; inhibition, % at 18.7 µM; AID 651710; recombinant RAD52 DNA annealing, FRET fluorescence; P43351;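 active = every replicate showing at least 50% inhibition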
# Active calls of the source: *; x = no result given.
SMILES,RAD54 inh,Yeast UUG start,PglD inh,Casp6 inh,INS-1E GSIS act,RAD52 anneal inh
CCOC(=O)c1cc(S(=O)(=O)NC2CCCCC2)cn1C,1,2,1,-2,-6,-6
COc1ccc(NC(=O)CSc2sc3c(O)cc(=O)[nH]c3c2C#N)c(OC)c1,-5,-13,-4,59*,6,-11
COc1ccccc1NC(=O)CSc1sc2c(O)cc(=O)[nH]c2c1C#N,-2,-12,-1,31,23,-24
COC(=O)c1ccc(C)c(NC(=O)CSc2sc3c(O)cc(=O)[nH]c3c2C#N)c1,4,-10,-3,54*,16,-42
Cc1ccc(C)c(NC(=O)CSc2sc3c(O)cc(=O)[nH]c3c2C#N)c1,-6,-3,12,47*,-1,-22
Cc1ccc(Cl)cc1NC(=O)CSc1sc2c(O)cc(=O)[nH]c2c1C#N,3,-12,-7,44*,-9,-45
COc1ccc(Cl)cc1NC(=O)CSc1sc2c(O)cc(=O)[nH]c2c1C#N,-5,-9,-2,28,18,-46
C[C@@H]1CN([C@H](C)CO)C(=O)c2cc(C#CCN(C)C)cnc2O[C@@H]1CN(C)C,-8,3,-2,2,21,-8
COc1cc(-c2nc(CN3CCCN(C(=O)c4ccco4)CC3)c(C)o2)ccc1F,-3,-11,1,-1,-1,-28
CCc1cc2c(COC(=O)c3cccc(S(C)(=O)=O)c3)cc(=O)oc2cc1O,-4,5,-4,2,50*,-56
NC(=S)N=Nc1c(O)cc(O)c2[nH]c(=O)ccc12,x,x,x,93*,17,-52
CC1CN(C(=O)COC(=O)c2cnc(Cl)c(Cl)c2)CC(C)O1 (configuration not stated),-4,-14,-2,-1,13,-15
CC(/C=C/c1ccco1)=N\NC(=O)c1cc(C)[nH]n1,x,x,x,x,4,x
O=C(/C=C/c1ccco1)c1cccnc1,x,x,x,65*,-5,-45
CC(/C=C/c1ccco1)=N\NC(=O)c1cc(Cl)ccc1O,x,x,x,52*,2,-19
O=C(C=Cc1ccco1)c1cc(Cl)ccc1O,-4,-5,-7,45*,x,-15
O=C(/C=C/c1ccco1)c1ccccc1O,x,x,x,13,-3,-27
O=C(Nc1ccc2nsnc2c1)NC1CCCCC1,2,-26,-3,x,x,x
O=[N+]([O-])/C=C/c1c(OCc2ccccc2)ccc2ccccc12,-2,286*,-5,x,x,x
Cc1ccc(CN(Cc2ccccn2)C(=O)Nc2ccc(C)c(C)c2)cc1,3,-14,0,0,-19,-17
Cc1cc(N)n(-c2ccc(C)c(C)c2)n1,x,x,x,-1,15,-7
Cc1cc(N)n(-c2ccc(Oc3ccccc3)c(S(=O)(=O)O)c2)n1,x,x,x,38*,0,-24
COc1ccc(/C=N/c2c(-c3ccc(OC)cc3)nc3n2CCS3)cc1,10,-19,-6,x,x,x
Fc1ccc(/C=N/c2c(-c3ccc(F)cc3)nc3n2CCS3)cc1,-8,-3,1,x,62*,x
Cc1cccc(C)c1N=Nc1c(C)cc(O)cc1C,4,-9,4,3,571*,1
COC(=O)c1cc(=O)[nH]c(SCc2cccc(C)c2)n1,4,-6,5,2,-7,-12
O=Cc1c(NCCN2CCCC2)c2ccccc2[nH]c1=O,4,-2,-4,-65,0,-9
C=CCN1C(=O)c2n[nH]c(COC)c2C1c1ccc(F)cc1 (configuration not stated),x,x,x,-1,65*,4
C=CCN1C(=O)c2n[nH]c(COC)c2C1c1ccc2c(c1)OCO2 (configuration not stated),x,x,x,1,15,-1
COc1ccc2cc3cc(C(=O)NCCCN4CCOCC4)oc3nc2c1,60*,-3,-6,x,x,x
Cc1ccc(C2C(C(=O)c3sc(C)nc3C)=C(O)C(=O)N2CCN(C)C)o1 (configuration not stated),-2,-10,4,-2,3,-20
CCOC(=O)C1CCCN(S(=O)(=O)c2nc3nc(C)cc(C)n3n2)C1 (configuration not stated),-8,-15,3,37*,16,-3
CCOC(=O)C1CCCN(S(=O)(=O)c2ccc(S(=O)(=O)N3CCCC3)cc2)C1 (configuration not stated),3,0,-4,1,-8,3
CCOC(=O)/C(C#N)=C/c1c(N2CCN(c3ccc(OC)cc3)CC2)nc2c(C)cccn2c1=O,-18,2,-3,0,-10,-44
CCOC(=O)/C(C#N)=C/c1c(N2CCN(c3cccc(Cl)c3)CC2)nc2c(C)cccn2c1=O,-6,-15,-4,53*,20,-16
COC(=O)C1=C(C)N(Cc2cccc(C(F)(F)F)c2)C(=NCc2ccc(OC)cc2)NC1c1ccc(F)cc1 (configuration not stated),x,x,x,8,285*,-24

# Entries of single compounds, quoted from the list:
# Results for COc1ccc(Cl)cc1NC(=O)CSc1sc2c(O)cc(=O)[nH]c2c1C#N = RAD54 inh = -5; Yeast UUG start = -9; PglD inh = -2; Casp6 inh = 28; INS-1E GSIS act = 18; RAD52 anneal inh = -46
# Results for Cc1ccc(C)c(NC(=O)CSc2sc3c(O)cc(=O)[nH]c3c2C#N)c1 = RAD54 inh = -6; Yeast UUG start = -3; PglD inh = 12; Casp6 inh = 47*; INS-1E GSIS act = -1; RAD52 anneal inh = -22

# The results go on:
SMILES,RAD54 inh,Yeast UUG start,PglD inh,Casp6 inh,INS-1E GSIS act,RAD52 anneal inh
COC(=O)C1=C(C)N(Cc2cccc(C(F)(F)F)c2)C(=NCc2ccc(OC)cc2)NC1c1cccc(F)c1 (configuration not stated),x,x,x,14,84*,-6
COC(=O)C1=C(C)N(Cc2cccc(C(F)(F)F)c2)C(=NCc2ccc(OC)cc2)NC1c1ccccc1 (configuration not stated),x,x,x,20,x,-12
O=C([C@@H]1[C@@H](CO)[C@@H]2Cn3c(cccc3=O)[C@@H]2N1Cc1cc(F)ccc1F)N1CCOCC1,4,x,1,49*,3,-35
COC(=O)[C@@H]1[C@@H](CO)[C@@H]2Cn3c(cccc3=O)[C@@H]2N1CC1CCOCC1,-7,x,0,74*,15,-320
O=C(NCC1CCCCC1)[C@@H]1[C@@H](CO)[C@@H]2Cn3c(cccc3=O)[C@@H]2N1Cc1ccccn1,11,x,0,-7,22,-18
O=C([C@H]1[C@H](CO)[C@H]2Cn3c(cccc3=O)[C@H]2N1Cc1ccccn1)N1CCC(Cc2ccccc2)CC1,x,x,x,41*,7,-15
CN1CCN(C(=O)[C@@H]2[C@@H](CO)[C@@H]3Cn4c(cccc4=O)[C@@H]3N2Cc2cc(F)ccc2F)CC1,-2,x,-3,-2,17,4
O=C(NC1CCN(S(=O)(=O)c2ccccc2)CC1)c1ccccc1,11,-6,-7,-1,1,-6
N#Cc1ccc2ccn(CC(=O)N3CCCc4ccccc43)c2c1,7,-8,-2,x,x,x
Cc1nn(CC(=O)N2N=C(C(F)F)CC2(O)C(F)F)c(C)c1[N+](=O)[O-] (configuration not stated),x,x,x,-2,19,0
CC(C)=CCC[C@H](C)C[C@@H]1Cc2[nH]c(=S)[nH]c(=O)c2[C@@H](c2ccc(F)cc2)O1,x,x,x,-2,255*,4
COCCOC(=O)c1c(C)n(C)c2ccc(OC(=O)c3c(OC)cccc3OC)cc12,-5,-1,-4,-3,15,-2
COc1ccc2c(c1)c(C(=O)OCCN(C)C)c(C)n2C,59*,-17,3,x,x,x

# Shown with tabs: part of the list above.
canonical_smiles	RAD54 inh	Yeast UUG start	PglD inh	Casp6 inh	INS-1E GSIS act	RAD52 anneal inh
N#Cc1ccc2ccn(CC(=O)N3CCCc4ccccc43)c2c1	7	-8	-2	x	x	x
Cc1nn(CC(=O)N2N=C(C(F)F)CC2(O)C(F)F)c(C)c1[N+](=O)[O-] (configuration not stated)	x	x	x	-2	19	0
